Amino acid sequences for entries named in this document (tags omitted). Residues count along the entry.
UniProt P25774, 115-331 limits assumed: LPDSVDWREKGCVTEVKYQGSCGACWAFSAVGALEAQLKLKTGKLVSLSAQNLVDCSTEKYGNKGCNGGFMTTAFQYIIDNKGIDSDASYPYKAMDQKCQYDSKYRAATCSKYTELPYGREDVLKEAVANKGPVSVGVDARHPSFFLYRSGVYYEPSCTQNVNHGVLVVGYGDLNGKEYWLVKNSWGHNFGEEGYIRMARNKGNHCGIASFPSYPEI
UniProt P07711, 114-333 limits assumed: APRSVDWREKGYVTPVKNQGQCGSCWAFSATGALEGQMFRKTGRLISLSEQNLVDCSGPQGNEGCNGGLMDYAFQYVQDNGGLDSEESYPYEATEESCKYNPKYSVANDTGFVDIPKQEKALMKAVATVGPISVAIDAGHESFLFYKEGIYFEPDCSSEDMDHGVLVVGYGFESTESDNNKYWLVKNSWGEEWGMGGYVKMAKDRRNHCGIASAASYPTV
UniProt P43235, 115-329 limits assumed: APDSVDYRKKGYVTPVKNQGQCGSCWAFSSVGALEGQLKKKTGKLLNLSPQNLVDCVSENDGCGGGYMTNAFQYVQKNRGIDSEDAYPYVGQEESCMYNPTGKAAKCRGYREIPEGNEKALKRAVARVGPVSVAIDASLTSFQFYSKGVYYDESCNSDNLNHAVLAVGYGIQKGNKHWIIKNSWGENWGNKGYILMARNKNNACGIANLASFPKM

According to patent publication US8859505B2, “Cysteine protease inhibitors” (Medivir UK Ltd, priority 2010, dated 2014):

How the values were obtained:
human cathepsin S = human cathepsin S (Homo sapiens, UniProt P25774); test: Cathepsin S Ki determination; details: read-out: Ki Cat. S; baculovirus-expressed enzyme, boc-Val-Leu-Lys-AMC substrate, pH 6.5
human cathepsin L = human cathepsin L (Homo sapiens, UniProt P07711); test: Cathepsin L Ki; details: read-out: Ki Cat. L; H-D-Val-Leu-Lys-AMC substrate, pH5.5
[1] = biological target: human recombinant cathepsin K (Homo sapiens, UniProt P43235); test: Determination of cathepsin K proteolytic catalytic activity (Ki); details: read-out: Ki Cat. K; fluorogenic substrate H-D-Ala-Leu-Lys-AMC

SMILES	Ki (human cathepsin S) [nM]	Ki (human cathepsin L) [nM]	Ki [1] [nM]
CC(C)(C)C[C@H](NC(=O)C(C)(C)F)C(=O)NC1(C(=O)C(N)=O)CCC1	19	4300	220
CC(C)(C)C[C@H](NC(=O)OC(C)(C)C)C(=O)NC1(C(=O)C(N)=O)CCC1	8.3	9700	510
NC(=O)C(=O)C1(NC(=O)[C@H](CC2(F)CCCC2)NC(=O)C2CC2)CCCC1	9.7	18000	7500
